Values quoted from earlier work as cited in paper PMC6353895, “A C-terminal cysteine residue is required for peptide-based inhibition of the NGF/TrkA interaction at nM concentrations: implications for peptide-based analgesics” (Scientific Reports, 2019).

System: NGF
Settings: cited from earlier work
Description: Since increased levels of NGF have been implicated in a number of pain states, including inflammatory and neuropathic pain[8], neurogenic overactive bladder and interstitial cystitis[9],[10], prostatitis, asthma[12] and cancer-induced bone pain[13], interest has focussed on creating novel analgesics by inhibiting the NGF/TrkA interaction. […] However to date, the most common NGF/TrkA intervention strategies have involved sequestering NGF with monoclona ...

Tanezumab: humanized IgG2 monoclonal antibody that binds NGF
Binding to NGF: binds with high affinity and specificity to NGF
